Laboratory results as given in patent US11279687B2, “Compounds and compositions for the inhibition of NAMPT” (Valo Health, Inc., priority 2010, dated 2022).

Sequences of proteins named here, by UniProt entry; tags and fusion partners are left off. A change or cut given only in a name is not applied to a line headed by its entry.
UniProt P43490: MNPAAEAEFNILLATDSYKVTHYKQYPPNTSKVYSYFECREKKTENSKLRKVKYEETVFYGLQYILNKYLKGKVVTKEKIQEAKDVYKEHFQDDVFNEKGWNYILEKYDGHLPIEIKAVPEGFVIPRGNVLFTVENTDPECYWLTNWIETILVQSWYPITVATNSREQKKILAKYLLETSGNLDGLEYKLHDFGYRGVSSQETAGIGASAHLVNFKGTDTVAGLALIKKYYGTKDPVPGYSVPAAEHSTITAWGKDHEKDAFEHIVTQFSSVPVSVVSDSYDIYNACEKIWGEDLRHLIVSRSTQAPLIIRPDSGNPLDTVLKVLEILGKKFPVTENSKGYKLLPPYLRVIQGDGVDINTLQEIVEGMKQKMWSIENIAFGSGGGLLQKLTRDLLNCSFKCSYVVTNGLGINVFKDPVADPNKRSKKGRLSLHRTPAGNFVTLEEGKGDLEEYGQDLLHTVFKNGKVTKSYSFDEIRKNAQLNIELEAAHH

Biological target: NAMPT (Homo sapiens (Human), UniProt P43490)
Test: NAMPT biochemical inhibition assay (NMN quantified by mass spectrometry)
Conditions: read-out: Biochem IC50

Nc1ccc(CNC(=O)Nc2ccc(S(=O)(=O)c3ccccc3)cc2)cn1 [1-[(6-aminopyridin-3-yl)methyl]-3-[4-(benzenesulfonyl)phenyl]urea]
IC50: 3 nM
